Screen size: about 360,000 compounds; about 660 (0.18%) were called active. All entries are inconclusive by the source's own rule. Clear calls are listed elsewhere. The call rests on the fitted dose curve; in most records, active means well fitted inhibition curve with a large enough effect; inconclusive means small, poorly fitted or top-dose-only effect; inactive means no such curve, though single readings can be large or run the other way.
The molecules below were run against Rap guanine nucleotide exchange factor 4 (Homo sapiens) (UniProt Q8WZA2) (assay: qHTS for Antagonist of cAMP-regulated guanine nucleotide exchange factor 2 (EPAC2): primary screen). Details: EPAC2 GEF exchange of Rap1B-BODIPY-GDP, fluorescence.
Excerpt: In multi-cellular eukaryotic organisms, the effects of cAMP are transduced by two ubiquitously-expressed intracellular cAMP receptors, the classic protein kinase A/cAMP-dependent protein kinase (PKA/cAPK) and the more recently discovered exchange protein directly activated by cAMP/cAMP-regulated guanine nucleotide exchange factor (EPAC/cAMP-GEF). Both PKA and EPAC are ubiquitously expressed in all tissues, and an increase in intracellular cAMP levels will lead to the activation of both PKA and EPAC. Therefore, careful dissections of the individual role and relative contribution of EPAC and PKA within the overall cAMP signaling in various model systems are critical for further elucidating the mechanism of cAMP signaling. To date no EPAC-specific antagonists and agonist, as well as isoform-specific agonists have been reported, and developing EPAC-specific pharmacological probes to determine the physiological functions that EPAC play in the overall cAMP-mediated signaling remains a major challenge within the research field. Furthermore, identified regulators of EPAC may lead to new mechanism-based therapeutic strategies specifically targeting the EPAC / cAMP-signaling components as EPAC has been implicated to play important roles in major human pathological conditions such as diabetes, heart disease, and cancer.
This qHTS will be used to screen the Molecular Libraries Small Molecule Repository (MLSMR) as a concentration-titration series using the NCGC unique quantitative screening (qHTS) platform to find inhibitors for EPAC2. In addition, this assay will also be used as a counterscreen for the EPAC1 qHTS. This fluorescent based assay is developed and validated for EPAC2 that measures exchange using EPAC effector Rap1 complex with BODIPY-GDP, a GDP analog with a tethered fluorophores. Inhibitors are identified by monitoring the change in fluorescence signal as the exchanged free BODIPY-GDP has a reduced fluorescence compared to Rap1-bound BODIPY-GDP. Decrease in signal (inhibition) is the desired outcome for the EPAC2 antagonist while no activity in this assay is desired for the EPAC1 antagonist counterscreen.
NIH Chemical Genomics Center [NCGC]
NIH Molecular Libraries Probe Centers Network [MLPCN]
Assay Submitter (PI): Xiaodong Cheng, The University of Texas, Medical Branch
Briefly, three uL of reagents (100 nM EPAC2, 250 nM RAP1B-BODIPY-GDP, 50 uM GDP) were dispensed into a 1536-well Greiner black solid-bottom medium binding assay plate. Controls and test compounds (23 nL) were transferred to the plate via a Kalypsys pin tool equipped with a 1536-pin array. The plates were centrifuged at 1,000 rpm for 15 seconds followed by 5 minute incubation at room temperature. The assay plates were read at 5 minute intervals for 30 minutes in the ViewLux plate reader using 480nm excitation and 540nm emission filters. The results were normalized to the agonist positive control ATA and DMSO.
Further: nearly all actives have a fitted effect of over 45% in size.
Potency means the concentration at half of the fitted maximal effect.

Sequences of proteins named here, by UniProt entry; tags and fusion partners are left off. A change or cut given only in a name is not applied to a line headed by its entry.
UniProt Q8WZA2: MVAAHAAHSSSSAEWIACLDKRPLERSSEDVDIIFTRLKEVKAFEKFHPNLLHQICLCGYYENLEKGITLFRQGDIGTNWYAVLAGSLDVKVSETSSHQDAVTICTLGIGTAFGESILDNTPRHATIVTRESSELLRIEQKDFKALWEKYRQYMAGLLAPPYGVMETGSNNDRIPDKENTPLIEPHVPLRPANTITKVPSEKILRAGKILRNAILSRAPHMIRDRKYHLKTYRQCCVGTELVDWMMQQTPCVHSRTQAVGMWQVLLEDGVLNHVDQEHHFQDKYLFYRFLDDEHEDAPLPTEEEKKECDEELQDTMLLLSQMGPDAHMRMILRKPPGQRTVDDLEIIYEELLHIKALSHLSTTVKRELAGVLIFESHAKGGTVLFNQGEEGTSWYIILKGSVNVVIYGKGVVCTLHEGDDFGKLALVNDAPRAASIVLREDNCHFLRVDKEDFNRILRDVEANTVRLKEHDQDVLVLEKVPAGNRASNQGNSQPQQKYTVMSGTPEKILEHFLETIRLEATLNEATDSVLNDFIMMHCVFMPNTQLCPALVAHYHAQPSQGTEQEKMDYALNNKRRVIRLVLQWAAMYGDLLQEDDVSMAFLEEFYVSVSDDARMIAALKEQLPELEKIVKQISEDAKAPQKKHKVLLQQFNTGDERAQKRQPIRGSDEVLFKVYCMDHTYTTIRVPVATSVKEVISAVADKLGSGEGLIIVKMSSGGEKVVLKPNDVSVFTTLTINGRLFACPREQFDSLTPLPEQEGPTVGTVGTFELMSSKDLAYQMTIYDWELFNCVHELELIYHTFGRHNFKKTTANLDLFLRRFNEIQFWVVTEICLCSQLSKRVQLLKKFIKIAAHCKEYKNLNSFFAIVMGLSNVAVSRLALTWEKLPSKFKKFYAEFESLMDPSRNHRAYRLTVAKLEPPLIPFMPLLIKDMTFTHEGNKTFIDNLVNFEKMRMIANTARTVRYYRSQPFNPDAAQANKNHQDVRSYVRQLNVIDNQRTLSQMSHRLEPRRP

**Q.** For `CC1CCN(C(=O)Oc2c(Cl)cc(Cl)c3cccnc23)CC1`, which Potency is on record?
**A.** Its Potency is inconclusive: 39.8 µM.

**Q.** `Nc1ccc(CCCCOc2ccccc2)cc1` was tested. Which Potency did it give?
**A.** The Potency was inconclusive: 89.1 µM.

**Q.** How did the Potency turn out when `O=P(Nc1ccccn1)(c1ccc(Br)cc1)c1ccc(Br)cc1` was run?
**A.** Its Potency is inconclusive: 39.8 µM.

**Q.** For `Cc1ccc(OP(=O)(Nc2ccccn2)Oc2ccc(C)cc2)cc1`, which Potency is on record?
**A.** Its Potency is inconclusive: 50.1 µM.

**Q.** With `O=c1c2cc([N+](=O)[O-])ccc2[nH]c2c([N+](=O)[O-])cc([N+](=O)[O-])cc12` as the molecule, how does the Potency read?
**A.** Its Potency is inconclusive: 89.1 µM.

**Q.** Which Potency does the source give for `Cc1ccccc1OP(=O)(Nc1ccccn1)Oc1ccccc1C` here?
**A.** Its Potency is inconclusive: 70.8 µM.

**Q.** How did the Potency turn out when `Cc1ccc(NP(=O)(Oc2cccc(C)c2)Oc2cccc(C)c2)nc1` was run?
**A.** The Potency was inconclusive: 3.16 µM.

**Q.** `CCOP(=O)(Nc1cccc2ccccc12)OCC` was tested. Which Potency did it give?
**A.** Its Potency is inconclusive: 50.1 µM.

**Q.** With `CC1CCC(C(C)C)C(OP(=O)(Nc2ccccn2)c2ccccc2)C1` (stereo unspecified) as the molecule, how does the Potency read?
**A.** The Potency was inconclusive: 25.1 µM.

**Q.** With `CC(C)c1ccc(OP(=O)(Nc2ccccn2)Oc2ccccc2F)cc1` (stereo unspecified) as the molecule, how does the Potency read?
**A.** The Potency was inconclusive: 39.8 µM.

**Q.** How did the Potency turn out when `O=[N+]([O-])c1ccc(-c2cc([N+](=O)[O-])c(O)c([N+](=O)[O-])c2)cc1` was run?
**A.** The Potency was inconclusive: 56.2 µM.

Reference: PubChem BioAssay AID720708 (National Center for Advancing Translational Sciences (NCATS), 2013)
